Tests used:
[1] = target: T1, human opioid receptor-like (ORL-1) (Homo sapiens, UniProt P41146); test: In vitro ORL-1 receptor binding assay ([3H]-nociceptin displacement)
[2] = target: T1, human opioid receptor-like (ORL-1); test: In vitro ORL-1 receptor functional assay ([35S]GTPγS binding); assay type: biochemical; conditions: mean ± SEM; for EC50: read-out: ORL-1 GTPγS EC50
[3] = target: T2, μ-opioid receptor (Homo sapiens, UniProt P35372); test: In vitro mu-opioid receptor binding assay ([3H]-diprenorphine displacement); conditions: read-out: Ki [Average ± Std Deviation] Opioid Receptor Mu
[4] = target: T2, μ-opioid receptor; test: In vitro mu-opioid receptor functional assay ([35S]GTPγS); assay type: biochemical; conditions: mean ± SEM; for EC50: read-out: Mu opioid receptor GTPγS EC50
[5] = target: kappa opioid receptor (Homo sapiens, UniProt P41145); test: In vitro kappa-opioid receptor functional assay ([35S]GTPγS); assay type: biochemical; conditions: mean ± SEM; for EC50: read-out: Kappa opioid receptor GTPγS EC50
[6] = target: recombinant delta opioid receptor (Homo sapiens, UniProt P41143); test: In vitro delta-opioid receptor binding assay ([3H]-Naltrindole displacement)

Row | SMILES | Ki [1] [nM] | ORL-1 GTPγS Emax [2] [%] | Ki [3] [µM] | Mu opioid receptor GTPγS Emax [4] [%] | Kappa opioid receptor GTPγS Emax [5] [%] | Ki [6] [µM] | EC50 [2] [nM] | EC50 [4] [nM] | EC50 [5] [µM]
1 | O=C(O)[C@@H]1CN(CCNc2nc3ccccc3n([C@H]3C[C@H]4CCC[C@@H](C3)N4C34CC5CC(CC(C5)C3)C4)c2=O)C[C@H]1C(=O)O | 587 | – | – | – | – | – | – | – | –
2 | CN(CC(=O)O)[C@H]1CCN(c2nc3ccccc3n([C@@]3(C)C[C@H]4CCC[C@@H](C3)N4C3CCCCCCC3)c2=O)C1 | 22.9 | 57.0 | 0.689 | 31.7 | 20.0 | 1.16 | – | – | –
3 | COc1ccc(NC(=O)c2nc3ccccc3n([C@H]3C[C@H]4CC[C@@H](C3)N4C3CCCCCCC3)c2=O)cn1 | 3.1 | 94.0 ± 3.6 | 0.21 | – | 8.7 ± 0.3 | 1.71 | 41.3 | 79300 | 0.831
4 | NC(=O)[C@H](CO)Nc1nc2ccccc2n([C@H]2C[C@H]3CC[C@@H](C2)N3C2CCCCCCC2)c1=O | 8.6 | 83.3 ± 8.0 | 0.196 | 14 | 12.7 ± 2.7 | 29.2 | 93.1 | 2150 | 3.15
5 | CC(C)(C)[C@H]1CC[C@@H](N2[C@@H]3CC[C@H]2C[C@@H](n2c(=O)c(C(=O)O)nc4ccccc42)C3)CC1 | 1190 | – | – | – | – | – | – | – | –
6 | O=C(N[C@@H](CO)C(=O)O)c1nc2ccccc2n([C@H]2C[C@H]3CC[C@@H](C2)N3C2CCCCCCC2)c1=O | 13.5 | 107.7 ± 3.7 | 0.462 | 9.7 ± 0.6 | 8.3 ± 0.3 | 26.1 | 183 | 1750 | 3.85
7 | CN(CC(=O)O)[C@H]1CCN(c2nc3ccccc3n([C@H]3C[C@H]4CC[C@@H](C3)N4C3CCCCCCC3)c2=O)C1 | 21.5 | 73.3 ± 3.7 | 8.93 | – | 8.0 ± 1 | 72.5 | 618 | – | > 20
8 | O=C(O)c1nc2ccccc2n([C@H]2C[C@H]3CC[C@@H](C2)N3C2C3CC4CC(C3)CC2C4)c1=O (stereo partly drawn) | 89.9 | 33.3 ± 2.2 | 11 | – | – | – | 271 | – | –
9 | CC(C)(C)[C@H]1CC[C@H](N2[C@@H]3CC[C@H]2C[C@@H](n2c(=O)c(C(=O)O)nc4ccccc42)C3)CC1 | 962 | – | – | – | – | – | – | – | –
10 | O=C(O)c1nc2ccccc2n([C@H]2C[C@H]3CC[C@@H](C2)N3C2CCCCCC2)c1=O | 1340 | – | – | – | – | – | – | – | –
11 | O=C(O)C1(Nc2nc3ccccc3n([C@H]3C[C@H]4CC[C@@H](C3)N4C3CCCCCCC3)c2=O)CCCCC1 | – | 39 ± 1 | > 20 | – | 0 | > 20 | 1770 | – | > 20
12 | O=C(O)c1nc2ccccc2n([C@H]2C[C@H]3CC[C@@H](C2)N3C23CC4CC(CC(C4)C2)C3)c1=O | 15.4 | – | – | – | – | – | – | – | –
13 | O=C(O)CN[C@H]1CCN(c2nc3ccccc3n([C@H]3C[C@H]4CC[C@@H](C3)N4C3CCCCCCC3)c2=O)C1 | 29.9 | 59 ± 2 | 16.9 | – | 4.3 ± 1.3 | > 20 | 471 | – | > 20
14 | O=C(NO)c1nc2ccccc2n([C@H]2C[C@H]3CC[C@@H](C2)N3C2CCCCCCC2)c1=O | – | 127.0 ± 5.3 | – | 12.5 ± 1.4 | 17 | > 100 | 31.3 | – | 2.45
15 | O=C(O)CNC(=O)c1nc2ccccc2n([C@H]2C[C@H]3CC[C@@H](C2)N3C2CCCCCCC2)c1=O | 15.7 | 102.7 ± 2.7 | 0.488 | 12.0 ± 0.8 | 12.7 ± 1.5 | 17.6 | 209 | 1350 | 4.34
16 | CCOC(=O)[C@@H]1CN(CCNc2nc3ccccc3n([C@H]3C[C@H]4CCC[C@@H](C3)N4C34CC5CC(CC(C5)C3)C4)c2=O)C[C@H]1C(=O)OCC | 493 | – | – | – | – | – | – | – | –
17 | O=C(O)c1nc2ccccc2n([C@H]2C[C@H]3CC[C@@H](C2)N3C23C[C@H]4C[C@@H](C2)C[C@](O)(C4)C3)c1=O | 912 | – | – | – | – | – | – | – | –
18 | CC12CC3CC(C)(C1)CC(N1[C@@H]4CCC[C@H]1C[C@@H](n1c(=O)c(C(=O)O)nc5ccccc51)C4)(C3)C2 | 38.1 | 68.7 ± 3.4 | 4.75 | – | – | – | 293 | – | –
19 | CC(C)[C@H]1CC[C@H](N2[C@@H]3CC[C@H]2C[C@@H](n2c(=O)c(C(=O)O)nc4ccccc42)C3)CC1 | 400 | – | – | – | – | – | – | – | –
20 | O=C(O)c1nc2ccccc2n([C@H]2C[C@H]3CCC[C@@H](C2)N3C23CC4CC(CC(C4)C2)C3)c1=O | – | 60.0 ± 1.7 | 17.2 | – | – | – | 1830 | – | –
21 | CC(C)[C@H]1CC[C@@H](N2[C@@H]3CC[C@H]2C[C@@H](n2c(=O)c(C(=O)O)nc4ccccc42)C3)CC1 | 131 | 67.8 ± 1.9 | 5.3 | – | – | 68.8 | 3570 | – | –
22 | CC(C)(C)CC(C)(C)N1[C@@H]2CCC[C@H]1C[C@@H](n1c(=O)c(C(=O)O)nc3ccccc31)C2 | 2.8 | 105.3 ± 5.7 | > 20 | – | – | > 20 | 17 | – | –
23 | O=C(N[C@@H](CO)C(=O)O)C1Nc2ccccc2N([C@H]2C[C@H]3CC[C@@H](C2)N3C2CCCCCCC2)C1=O (stereo partly drawn) | 43.7 | – | 0.422 | – | – | 26 | 594 | 3580 | 4.68

Source: patent publication US9527840B2, “Substituted-quinoxaline-type piperidine compounds and the uses thereof” (priority 2007, dated 2016)
